Where two headings read alike, the source gives them in different places.

Chains of the proteins cited; added tags and fusions are not shown. A line that says so, or that is headed by a name, gives the form on record, which may keep a tag or linker. Residues count along the entry.
UniProt P00533, 668-1210 limits assumed: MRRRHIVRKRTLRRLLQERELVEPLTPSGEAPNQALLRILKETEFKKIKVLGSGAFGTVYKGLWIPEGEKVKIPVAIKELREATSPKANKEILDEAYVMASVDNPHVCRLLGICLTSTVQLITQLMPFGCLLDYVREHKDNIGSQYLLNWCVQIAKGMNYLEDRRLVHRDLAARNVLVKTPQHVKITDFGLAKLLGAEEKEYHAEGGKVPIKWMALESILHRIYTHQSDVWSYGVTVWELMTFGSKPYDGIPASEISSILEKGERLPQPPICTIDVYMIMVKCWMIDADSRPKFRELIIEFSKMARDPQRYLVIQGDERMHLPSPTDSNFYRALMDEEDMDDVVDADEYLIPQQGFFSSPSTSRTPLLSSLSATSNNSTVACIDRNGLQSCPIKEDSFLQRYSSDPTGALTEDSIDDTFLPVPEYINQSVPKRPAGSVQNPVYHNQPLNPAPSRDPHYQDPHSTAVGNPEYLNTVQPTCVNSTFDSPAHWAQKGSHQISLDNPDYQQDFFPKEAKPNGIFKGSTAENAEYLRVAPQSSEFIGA
UniProt P00533, with tags, fused parts or gaps INS772GNP: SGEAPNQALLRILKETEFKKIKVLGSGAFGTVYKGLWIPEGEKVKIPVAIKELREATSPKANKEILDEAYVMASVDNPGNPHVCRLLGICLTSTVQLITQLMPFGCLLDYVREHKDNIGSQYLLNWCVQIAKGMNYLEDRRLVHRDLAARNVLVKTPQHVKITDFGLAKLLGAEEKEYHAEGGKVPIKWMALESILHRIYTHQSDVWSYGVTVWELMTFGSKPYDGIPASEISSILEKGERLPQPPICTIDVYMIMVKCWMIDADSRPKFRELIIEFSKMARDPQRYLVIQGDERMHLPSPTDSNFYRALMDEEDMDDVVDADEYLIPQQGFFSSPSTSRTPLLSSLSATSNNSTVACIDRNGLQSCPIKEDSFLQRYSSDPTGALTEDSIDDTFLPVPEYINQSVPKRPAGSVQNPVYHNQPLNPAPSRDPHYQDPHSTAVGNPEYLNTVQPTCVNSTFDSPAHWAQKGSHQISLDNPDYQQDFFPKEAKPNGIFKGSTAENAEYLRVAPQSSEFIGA
UniProt P00533, 695-1210 T790M: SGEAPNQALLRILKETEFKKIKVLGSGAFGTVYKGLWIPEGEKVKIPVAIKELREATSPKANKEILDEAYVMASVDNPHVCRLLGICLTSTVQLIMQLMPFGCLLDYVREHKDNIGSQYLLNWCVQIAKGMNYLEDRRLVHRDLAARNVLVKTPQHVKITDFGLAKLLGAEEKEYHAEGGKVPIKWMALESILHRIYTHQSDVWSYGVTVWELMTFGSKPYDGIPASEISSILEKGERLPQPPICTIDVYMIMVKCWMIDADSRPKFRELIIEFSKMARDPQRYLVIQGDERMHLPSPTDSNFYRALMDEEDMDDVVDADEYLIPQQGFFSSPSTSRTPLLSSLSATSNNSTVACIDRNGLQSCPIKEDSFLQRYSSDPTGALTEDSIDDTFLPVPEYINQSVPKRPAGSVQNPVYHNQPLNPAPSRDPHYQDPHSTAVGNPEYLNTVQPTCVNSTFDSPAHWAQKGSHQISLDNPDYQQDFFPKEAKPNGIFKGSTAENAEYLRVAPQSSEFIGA
UniProt P00533, 695-1210 L858R: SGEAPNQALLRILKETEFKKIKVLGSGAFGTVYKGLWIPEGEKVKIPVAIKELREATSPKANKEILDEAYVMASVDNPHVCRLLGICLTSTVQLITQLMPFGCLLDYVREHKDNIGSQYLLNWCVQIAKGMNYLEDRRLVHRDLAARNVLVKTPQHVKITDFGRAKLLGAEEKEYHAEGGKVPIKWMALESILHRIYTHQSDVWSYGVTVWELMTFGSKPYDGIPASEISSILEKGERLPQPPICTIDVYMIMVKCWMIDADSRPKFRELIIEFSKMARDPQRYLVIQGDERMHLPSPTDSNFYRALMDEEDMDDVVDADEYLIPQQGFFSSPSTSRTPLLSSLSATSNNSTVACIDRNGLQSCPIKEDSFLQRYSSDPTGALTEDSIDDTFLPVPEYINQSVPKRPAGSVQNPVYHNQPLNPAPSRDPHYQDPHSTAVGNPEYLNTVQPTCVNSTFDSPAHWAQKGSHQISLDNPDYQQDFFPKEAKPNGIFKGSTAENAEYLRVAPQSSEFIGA
UniProt P00533, 695-1210 T790M/L858R: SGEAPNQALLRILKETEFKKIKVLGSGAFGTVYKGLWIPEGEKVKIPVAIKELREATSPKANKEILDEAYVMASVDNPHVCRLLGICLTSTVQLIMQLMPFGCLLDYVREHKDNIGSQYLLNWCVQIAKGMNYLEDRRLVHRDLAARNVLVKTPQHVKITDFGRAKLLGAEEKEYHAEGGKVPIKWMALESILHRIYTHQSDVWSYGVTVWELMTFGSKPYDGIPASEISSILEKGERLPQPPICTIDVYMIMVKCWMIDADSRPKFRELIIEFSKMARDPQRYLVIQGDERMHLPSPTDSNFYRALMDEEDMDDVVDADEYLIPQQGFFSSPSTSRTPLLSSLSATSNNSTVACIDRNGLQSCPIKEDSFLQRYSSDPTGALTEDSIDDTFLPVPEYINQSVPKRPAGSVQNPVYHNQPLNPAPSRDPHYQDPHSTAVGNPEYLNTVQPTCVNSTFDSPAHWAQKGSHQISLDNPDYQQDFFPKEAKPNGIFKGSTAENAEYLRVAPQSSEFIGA
UniProt P00533, with tags, fused parts or gaps DEL746-750: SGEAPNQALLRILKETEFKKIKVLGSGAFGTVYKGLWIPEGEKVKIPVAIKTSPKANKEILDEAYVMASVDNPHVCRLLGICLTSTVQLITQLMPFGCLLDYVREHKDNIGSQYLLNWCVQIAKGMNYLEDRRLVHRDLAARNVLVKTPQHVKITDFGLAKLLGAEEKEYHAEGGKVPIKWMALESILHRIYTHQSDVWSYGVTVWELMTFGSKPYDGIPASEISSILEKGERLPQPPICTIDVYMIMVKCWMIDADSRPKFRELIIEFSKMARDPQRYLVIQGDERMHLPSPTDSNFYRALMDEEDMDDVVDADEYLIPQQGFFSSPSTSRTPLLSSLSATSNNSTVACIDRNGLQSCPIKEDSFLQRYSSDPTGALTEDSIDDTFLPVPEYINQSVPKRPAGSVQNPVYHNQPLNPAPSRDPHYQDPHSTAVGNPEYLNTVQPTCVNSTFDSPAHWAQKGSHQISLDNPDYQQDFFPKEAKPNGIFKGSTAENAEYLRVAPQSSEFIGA
UniProt P00533, with tags, fused parts or gaps DEL746-750/T790M: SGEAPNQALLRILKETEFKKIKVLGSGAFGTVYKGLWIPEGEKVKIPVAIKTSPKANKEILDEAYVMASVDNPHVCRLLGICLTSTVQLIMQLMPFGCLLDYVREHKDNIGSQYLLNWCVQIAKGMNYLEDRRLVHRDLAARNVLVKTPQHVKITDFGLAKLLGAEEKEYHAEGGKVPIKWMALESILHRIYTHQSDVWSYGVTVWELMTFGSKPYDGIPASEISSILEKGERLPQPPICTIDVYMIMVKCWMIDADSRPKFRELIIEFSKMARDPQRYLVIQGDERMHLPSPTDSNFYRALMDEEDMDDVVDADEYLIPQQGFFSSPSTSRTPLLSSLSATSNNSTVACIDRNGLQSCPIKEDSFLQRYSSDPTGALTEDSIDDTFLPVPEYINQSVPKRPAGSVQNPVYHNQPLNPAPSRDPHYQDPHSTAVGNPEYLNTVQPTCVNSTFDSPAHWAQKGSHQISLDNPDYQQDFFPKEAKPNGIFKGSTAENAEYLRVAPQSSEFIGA

A word on the IC50: it is the point on the concentration scale where inhibition reaches its midpoint.

What all share (assay): biochemical
Assay [1] concerns the target T1, EGFR WT (Homo sapiens, UniProt P00533).
Assay [2] deals with EGFR A763_Y764insFHEA (Homo sapiens, UniProt P00533, INS763FHEA).
Assay [3] has as its target EGFR D770_N771insNPG (Homo sapiens, UniProt P00533, INS772GNP).
The target of assay [4] is T1, EGFR WT. This is another data set of the same source.
Assay [5] addresses EGFR T790M (Homo sapiens, UniProt P00533, T790M).
Assay [6] deals with EGFR L858R (Homo sapiens, UniProt P00533, L858R).
For assay [7], the target named is EGFR T790M + L858R (Homo sapiens, UniProt P00533, L858R/T790M).
Assay [8] has as its target EGFR Exon19 Del (Homo sapiens, UniProt P00533, DEL746-750).
For assay [9], the target named is EGFR T790M + Exon19 Del (Homo sapiens, UniProt P00533, DEL746-750/T790M).

With `CCOc1cc2ncc(C#N)c(Nc3ccc(OCc4ccccn4)c(Cl)c3)c2cc1NC(=O)/C=C/[C@H]1CCCN1C` [Compound A, (E)-N-[4-[[3-chloro-4-(2-pyridylmethoxy)phenyl]amino]-3-cyano-7-ethoxy-6-quinolyl]-3-[(2R)-1-methylpyrrolidin-2-yl]prop-2-enamide], the IC50 in assay [1] is 0.545 nM; in [2] it was 0.148 nM; in [3], 0.435 nM; in assay [4], 42.3 nM; in assay [5], 135 nM; in [6], 25.1 nM. The IC50 in [7] is 242 nM; in assay [8] it was 126 nM; in assay [9], 1530 nM.
